# Source: patent US20230183215A1, “Notch Inhibitors and Uses Thereof” (StemSynergy Therapeutics, Inc., priority 2020, published 2023)
# Amino acid sequences for entries named in this document (tags omitted). Residues count along the entry.
# UniProt P46531, 1754-2555 limits assumed: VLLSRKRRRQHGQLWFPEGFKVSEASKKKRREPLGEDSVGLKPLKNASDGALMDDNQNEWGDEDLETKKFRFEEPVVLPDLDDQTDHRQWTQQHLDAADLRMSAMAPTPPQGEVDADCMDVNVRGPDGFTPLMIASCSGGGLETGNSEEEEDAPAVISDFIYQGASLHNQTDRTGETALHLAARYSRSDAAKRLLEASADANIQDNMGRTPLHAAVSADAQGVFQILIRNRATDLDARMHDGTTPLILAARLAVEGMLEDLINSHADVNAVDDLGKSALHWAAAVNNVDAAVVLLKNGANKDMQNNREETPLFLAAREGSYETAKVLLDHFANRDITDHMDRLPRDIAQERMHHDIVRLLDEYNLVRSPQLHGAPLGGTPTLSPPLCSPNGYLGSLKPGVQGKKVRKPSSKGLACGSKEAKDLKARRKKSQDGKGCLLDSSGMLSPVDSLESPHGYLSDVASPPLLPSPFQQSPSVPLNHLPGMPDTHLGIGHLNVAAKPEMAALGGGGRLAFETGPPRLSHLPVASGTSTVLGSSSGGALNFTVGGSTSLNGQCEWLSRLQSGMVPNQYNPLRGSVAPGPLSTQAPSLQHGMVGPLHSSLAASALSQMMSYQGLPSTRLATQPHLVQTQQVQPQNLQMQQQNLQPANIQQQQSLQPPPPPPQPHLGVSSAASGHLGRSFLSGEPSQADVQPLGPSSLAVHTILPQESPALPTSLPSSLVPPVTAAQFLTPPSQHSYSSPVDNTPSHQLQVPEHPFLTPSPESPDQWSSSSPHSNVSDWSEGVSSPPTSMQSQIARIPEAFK
# Counter-ions that a name gives are not always drawn.
# Key:
# Notch1 = Notch1 (Homo sapiens, UniProt P46531); assay: Notch1 Reporter Assay (CSL-responsive luciferase, doxycycline-induced Notch-ICD in 293A cells); conditions: read-out: Notch1 Reporter Assay IC50, 25 ng/mL Dox, 24 h, luciferase normalized to cell viability, tested form: HCl
# Description: 293A cells expressing 1) pCMV-Tet-On 3G, 2) pLV[Tet]-Puro-TRE3G>Notch1-ICD, 3) pLV[Tet]-Puro-TRE3G>Notch2-ICD, 4) pLV[Tet]-Puro-TRE3G>Notch3-ICD, and 5) pCSL-RElement-Luc were used. When Doxycycline is added, the Tet-ON gene activates expression of hNotch1ICD, which together with endogenous NTC components binds to CSL responsive elements (pCSL-RElement-Luc) and expresses luciferase. 1×10^4 cells are plated in 100 μL (96-well format). 24 h later, compounds (10 mM stock in DMSO) are diluted in DMSO to 200×, then added (5 ul into 1 mL) to cell culture media containing 50 ng/mL Dox. This is then added 1:1 to cells. Final DMSO=0.25%, Dox=25 ng/mL. After 24 h, media is discarded, and cells are lysed in passive lysis buffer (Promega). Cells are rocked at room temperature for 15 min and then lysate is divided for luciferase assay (Luciferase Assay System, Promega) and cell viability (CellTiter Glo 2.0, Promega). Raw luciferase is normalized to cell viability, and then scaled to DMSO wells. Results are analyzed and IC50's are determined in GraphPad by nonlinear regression curve fitting (4 parameter) of dose response curves.
# [1] = tested on: OE33 Esophageal Adenocarcinoma cell line; assay: OE33 Colony Formation Assay; conditions: read-out: OE33 Colony Formation Assay EC50; 200 cells/well, compound every 48 hours for 7 days, CellTiter-Glo; tested form: HCl
# Description: OE33 Colony Formation Assay:
# The OE33 Esophageal Adenocarcinoma cell line was cultured and plated into 96-well tissue culture plates under sparse conditions (200 cells/well). Test compounds were serially diluted in DMSO and then into culture media (final DMSO concentration=0.1%). Compound/media was then added to cells every 48 hours for a total of 7 days. Clonogenic growth was assessed using the CellTiter-Glo reagent, according to manufacturer (Promega) specifications. Percent inhibition was calculated as the percent of luminescence normalized to control (0.1% DMSO) wells. Nonlinear regression curve fitting was performed using GraphPad Prism software to determine EC50's.
smiles,measurement,setting,value
"COc1cc(-c2cc(C(F)(F)F)cc3c2n(C)c(=O)n3CC(=O)Nc2ccc(SC)cc2)cc(F)c1OCc1nnc[nH]1 [SSTN-498, 2-(4-(4-((4H-1,2,4-triazol-3-yl)methoxy)-3-fluoro-5-methoxyphenyl)-3-methyl-2-oxo-6-(trifluoromethyl)-2,3-dihydro-1H-benzo[d]imidazol-1-yl)-N-(4-(methylthio)phenyl)acetamide hydrochloride]",IC50,Notch1,8.1 µM
same,EC50,[1],3 µM
